Results from patent EP4821512A1, “RADIOLABELED COLLAGEN HYBRIDIZING PEPTIDE AND PREPARATION METHOD THEREFOR AND USE THEREOF” (dated 2026).
Each block holds one molecule with its values, some of them ahead of it.

Columns and labels:
[1] = system: denatured collagen; assay: Response to anti-fibrotic therapy: ex vivo lung fluorescence imaging of ^68Ga-Cy5-CHP probe uptake in bleomycin-injured mice; details: lungs imaged at 4 h
From the text: This test example utilized the ^68Ga-Cy5-CHP probe prepared in Example 2 to characterize the in vivo response of mice to two different anti-fibrotic treatments, further proving that the probe developed in the present disclosure can be used not only for disease detection imaging but also to reflect the dynamic changes of ECM remodeling, guiding mechanistic studies of disease progression and efficacy studies in drug development. The specific characterization methods of this test example were as follows:
As one of the two conditionally recommended therapies for IPF in clinical practice, PFD exerts anti-fibrotic effects by inhibiting fibroblast proliferation and differentiation, in addition to inhibiting TGF-β1 production and collagen synthesis. PFD inhibits the synthesis and degradation of collagen. […] On the 21st day after modeling, ^68Ga-Cy5-CHP was injected into the tail vein of the mice, and the lungs were harvested for fluorescence imaging at 4 h.
It was first hypothesized that fibrotic lungs treated with DHX would show less collagen accumulation but higher levels of collagen degradation and denaturation compared to the untreated BM control group. […] On the 24th day after modeling, ^68Ga-Cy5-CHP was injected into the tail vein of the mice, and the lungs were harvested for fluorescence imaging at 4 h.

[2] = In vitro stability analysis by radioactive TLC in PBS and FBS; details: 37 °C, 2 h, TLC every 30 min
Procedure: The ^68Ga-Cy3-CHP probe prepared in Example 1 was placed in 1x PBS and 10% fetal bovine serum (FBS) solutions, incubated at 37 °C for 2 h, and subjected to radioactive TLC detection every 30 min.

[3] = system: denatured collagen; assay: 1 h dynamic PET-CT and ex vivo biodistribution, CFPAC-1 subcutaneous tumor model
Procedure: In this test example, ^68Ga-Cy3-CHP prepared in Example 1 was used as a sample to evaluate the in vivo targeting specificity of the radiolabeled CHP-PET probe constructed in the present disclosure toward denatured collagen. The specific methods were as follows: First, a mouse subcutaneous tumor model was constructed using the human pancreatic cancer cell line CFPAC-1 (3×10^6 CFPAC-1 cells were injected into the right shoulder/back of 6-week-old female Balb/c-nu nude mice; experiments were conducted when the subcutaneous tumors reached 200 mm^3). The mice were divided into three groups. In two of the groups, the subcutaneous tumor-bearing mice were injected via the tail vein with approximately 8.42 MBq of either the denatured collagen-targeting probe ^68Ga-Cy3-CHP or the non-targeting probe ^68Ga-Cy3-^SCHP (the probe prepared in Comparative Example 1). Another group of mice was pre-injected with a blocking dose of the non-radiolabeled precursor probe NOTA-Cy3-CHP before being injected with ^68Ga-Cy3-CHP (blocking group). Dynamic PET-CT imaging was performed for 1 h.
To verify the PET imaging results, the mice were euthanized after the 1 h dynamic PET imaging, and the tumors were harvested for ex vivo biodistribution analysis, calculated as a percentage of the injected dose per gram (% ID/g).

[4] = system: PDAC lesions in the KPC model; assay: Static PET, ex vivo PET and biodistribution for PDAC lesions in the transgenic KPC model
From the text: Since the probes target the ECM, there are significant differences between the tumor ECM induced after injecting human tumor cells, whether in subcutaneous or orthotopic tumor models, and the real tumor ECM. […] The probes prepared in the examples of the present disclosure were used to detect PDAC lesions in the KPC model (>16 weeks of age) to further screen for preferred targeting probes.
The specific experimental method was as follows: KPC mice and normal mice of the same age were taken, and approximately 10 MBq of ^68Ga-Cy5-CHP was injected into the tail vein of the mice, respectively. Static scans were performed for 2 h. After the static scans, the mice were sacrificed, the pancreas was harvested for ex vivo PET, and the radioactive biodistribution of all organs was determined.
In order to adjust the biodistribution of radionuclide-labeled molecular probes and thereby improve the in vivo imaging effect of pancreatic tumors, in this section, ^68Ga-Cy5-CHP was improved by using another metal nuclide, ^64Cu, i.e., ^64Cu-Cy5-CHP prepared in the above Example 3 was used for further detection. The specific method was as follows: Approximately 10 MBq of ^64Cu-Cy5-CHP was injected into the tail vein of KPC mice (>16 weeks of age) and normal mice of the same age. Static scans were performed at multiple time points of 2 h, 4 h, 6 h, and 8 h. After 8 h, the pancreas was harvested for ex vivo PET.
In this section, the nuclide was changed to Al^18F, i.e., the Al^18F-Cy5-CHP probe prepared in Example 4 was used for in vivo imaging of pancreatic tumors. The specific method was as follows: approximately 10 MBq of Al^18F-Cy5-CHP was injected into the tail vein of KPC mice (>16 weeks of age) and normal mice of the same age, and a 3 h static scan was performed.

[5] = system: PanIN lesions; assay: 2 h static PET-CT detection of PanIN lesions in 8-week-old KPC mice
Procedure: In order to explore whether radionuclide-labeled CHP probes can detect pancreatic intraepithelial neoplasia (PanIN) lesions in vivo, this test example employed the Al^18F-Cy5-CHP probe using younger KPC mice. Theoretically, 8-week-old KPC mice have not yet progressed to the PDAC stage. These KPC mice and normal mice of the same age were injected with approximately 10 MBq of Al^18F-Cy5-CHP via the tail vein, followed by a 2 h static PET-CT scan.
The detection results are shown in FIG. 14A to FIG.14C, where FIG. 14A is a representative PET image of the 2 h static scan of Al^18F-Cy5-CHP, FIG. 14B is the ex vivo PET result of the pancreas, and FIG. 14C is the quantification of pancreatic radioactivity uptake. […] After imaging, the pancreas was harvested for ex vivo PET and its radioactivity was measured.
Furthermore, in this test example, frozen sections of the pancreas were prepared for HE staining and CHP counterstaining. […] This is because, during the evolution of PDAC, a large amount of unwound collagen already exists as early as the PanIN stage. […] It can be seen that the Al^18F-Cy5-CHP probe of the present disclosure has an excellent signal-to-noise ratio, enabling it to successfully detect such minute lesions as PanIN, providing a new tool for the early detection of PDAC.

[6] = system: denatured collagen; assay: Biodistribution by 1 h PET/CT, CFPAC-1 subcutaneous tumor-bearing mice and normal mice; details: normal mice (FIG. 27); 1 h PET/CT
Procedure: In order to intuitively evaluate the in vivo targeting specificity for denatured collagen and the in vivo biodistribution effects of the various constructed CHP-PET probes, this test example used the human pancreatic cancer cell line CFPAC-1 to construct a mouse subcutaneous tumor model. Subsequently, approximately 8.42 MBq of the collagen hybridizing peptide probes prepared in the above Examples 5-7 and Comparative Examples 3-6 were injected via the tail vein, and PET-CT imaging was performed at designated times.
The specific construction method for the mouse subcutaneous tumor model was as follows: 3 × 10^6 CFPAC-1 cells were injected into the right shoulder/back of 6-week-old female Balb/c-nu nude mice, and subsequent experiments were conducted when the subcutaneous tumors reached 200 mm^3.

[7] = KPC mice >16 weeks, approx. 10 MBq tail vein, 3 h static PET scan

Molecule: Cc1ccc(=O)n(-c2ccccc2)c1
lung uptake of the probe after PFD treatment ([1]; PFD from one day after bleomycin modeling, ^68Ga-Cy5-CHP on day 21, versus untreated BM control): significantly reduces the lung uptake of the probe in vivo

Molecule: Oc1cc2c(cc1O)[C@H]1c3ccccc3CN[C@@H]1CC2
lung uptake of the probe after DHX treatment ([1]; DHX from 10 days after bleomycin modeling, ^68Ga-Cy5-CHP on day 24, versus untreated BM group): significantly higher than that of the untreated BM disease group

Molecule: Cy3-Ahx-K(NOTA-^68Ga)-K(NH2)-Ahx-(GfO)9
^68Ga labeling retained (radioactive TLC) ([2]; 1x PBS): no significant decrease in ^68Ga labeling after approximately 2 h
^68Ga labeling retained (radioactive TLC) ([2]; 10% fetal bovine serum (FBS)): no significant decrease in ^68Ga labeling after approximately 2 h
tumor PET signal during 1 h dynamic imaging, blocking group ([3]; pre-injection of a blocking dose of NOTA-Cy3-CHP): sustained low signal
tumor visibility on PET images, blocking group ([3]; pre-injection of a blocking dose of non-radiolabeled NOTA-Cy3-CHP, 30 min and 60 min): tumors are not observable
tumor PET signal during 1 h dynamic imaging ([3]; subcutaneous CFPAC-1 tumor, approx. 8.42 MBq tail vein): washes out from the tumor slowly and maintains a significantly high signal throughout the dynamic imaging process
tumor visibility on PET images ([3]; subcutaneous CFPAC-1 tumor, approx. 8.42 MBq tail vein, 30 min and 60 min of 1 h dynamic PET): subcutaneous tumors can be clearly observed at 0.5 h and 1 h
ex vivo tumor uptake ([3]; tumors harvested after 1 h dynamic PET, versus scrambled and blocking groups): significantly higher tumor uptake

uptake in the liver and spleen [4, 7]: significantly reduced
uptake in the liver compared to ^68Ga-Cy5-CHP and ^64Cu-Cy5-CHP ([4]; KPC model): further reduced
liver uptake [6]: low liver uptake
renal uptake [6]: renal uptake is strong
Molecule: Cy5-Ahx-K(NOTA-Al^18F)-K(NH2)-Ahx-(GfO)9
PDAC detection compared with ^18F-FDG ([4]; 3 h static scan versus 1 h static PET scan of ^18F-FDG): superior to traditional ^18F-FDG
in vivo detection of PDAC lesions [4, 7]: PDAC lesions in the KPC model can be accurately detected with high clarity and signal-to-noise ratio
uptake in the pancreas compared to ^68Ga-Cy5-CHP and ^64Cu-Cy5-CHP ([4]; KPC model): further increased
pancreatic radioactivity uptake (ex vivo PET and radioactivity measurement) ([5]; 8-week-old KPC mice versus normal mice of the same age, after imaging): stronger Al^18F-Cy5-CHP uptake in the KPC pancreas
PET image signal at the pancreas ([5]; 8-week-old KPC mice, approx. 10 MBq tail vein, 2 h static PET-CT): high-signal points at the anatomical location of the pancreas in the abdomen
detection of PanIN lesions, confirmed by pathology ([5]; HE staining and CHP counterstaining of pancreas frozen sections): successfully detect such minute lesions as PanIN
